ChEMBL document CHEMBL4376805, “Plasmodium Purine Metabolism and Its Inhibition by Nucleoside and Nucleotide Analogues” (J Med Chem, 2019)

Target: T1, Hypoxanthine-guanine phosphoribosyltransferase (Homo sapiens, UniProt P00492)
T1 sequence (P00492 whole entry): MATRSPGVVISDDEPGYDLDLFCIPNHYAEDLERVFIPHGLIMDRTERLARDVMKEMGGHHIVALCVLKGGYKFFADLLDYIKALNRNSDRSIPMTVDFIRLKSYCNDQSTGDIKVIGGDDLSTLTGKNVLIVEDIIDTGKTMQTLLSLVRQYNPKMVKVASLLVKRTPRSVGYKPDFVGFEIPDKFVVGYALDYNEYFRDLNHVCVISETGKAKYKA

O=C(CCP(=O)(O)O)N1C[C@@H](n2cnc3c(O)ncnc32)[C@H](OC[C@@H](O)P(=O)(O)O)C1 was tested, and the Ki was 1.3 nM.
